Curated experimental data: melting point values

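The OPERA project collected these measurements from public sources as training and test data for property models. One number stands for a compound and property, with no spread given. Method, purity and exact conditions of the single measurements are not given. Where a salt, mixture or single isomer is drawn, the source does not say that exactly this form was tested. Some upstream entries may be estimates or bounds without being marked so.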

The melting point is given in degrees Celsius.
Cells with "–" have no entry in this list.
"via" names the databases from which the curators took the value.

structure (SMILES) | name | mp (°C) | via
O=C(Nc1ccccn1)C1CCNCC1 | N-(Pyridin-2-yl)piperidine-4-carboxamide | 114 | OCHEM
COc1ccc(C(F)(F)F)cc1CBr | 2-(Bromomethyl)-1-methoxy-4-(trifluoromethyl)benzene | 35.5 | OCHEM
O=C(O)c1cc(-c2ccc(Cl)cc2)nn1-c1ccccc1 | 3-(4-chlorophenyl)-1-phenyl-1H-pyrazole-5-carboxylic acid | 215 | OCHEM
Nc1nnc(-c2ccncc2)o1 | 1,3,4-Oxadiazole, 2-amino-5-(4-pyridyl)- | 240 | OCHEM
CS(=O)(=O)Nc1cccc(C#N)c1 | N-(3-cyanophenyl)methanesulfonamide | 155 | OCHEM
Cc1cccc(NC(=O)C2CCNCC2)n1 | N-(6-Methylpyridin-2-yl)piperidine-4-carboxamide | 176 | OCHEM
CC(C)(C)c1cc([N+](=O)[O-])c(O)c(C(C)(C)C)c1 | 2,4-di-tert-butyl-6-nitrophenol | 59 | OCHEM
N#CCc1cnn(-c2ccccc2)c1 | (1-phenyl-1H-pyrazol-4-yl)acetonitrile | 39 | OCHEM
OC(c1ccccc1)C1CCNCC1 (stereo unspecified) | phenyl(piperidin-4-yl)methanol | 172 | OCHEM
COc1ccccc1OCC(O)=NN | 2-(2-Methoxyphenoxy)ethanehydrazonic acid | 102 | OCHEM
O=C(CC(=O)NCc1ccccc1)NCc1ccccc1 | n,n'-dibenzylmalonamide | 120 | OCHEM
Nc1ccc(-c2nc3cc(N)ccc3[nH]2)cc1 | 2-(4-Aminophenyl)-1H-benzimidazol-2-amine | 235 | OCHEM
CCCOc1ccc2ccccc2c1C=O | 2-propoxy-1-naphthaldehyde | 66.5 | OCHEM
Nc1nc(-c2cc(Cl)ccc2Cl)cs1 | 4-(2,5-dichlorophenyl)-1,3-thiazol-2-amine | 163 | OCHEM
Cc1ccc(N2C(=O)CSC2=S)cc1 | Rhodanine, 3-(p-tolyl)- | 169 | OCHEM
Cc1cc(C)n2nc(N)nc2n1 | 5,7-dimethyl[1,2,4]triazolo[1,5-a]pyrimidin-2-amine | 370 | OCHEM
O=[N+]([O-])c1cc(Cl)ccc1I | 4-chloro-1-iodo-2-nitrobenzene | 64 | OCHEM
NNC(=O)c1n[nH]c2c1CCCC2 | 4,5,6,7-tetrahydro-1H-indazole-3-carbohydrazide | 177 | OCHEM
O=C(O)C1=C(Nc2ccccc2)OCC1=O | 2-Anilino-4-oxo-4,5-dihydrofuran-3-carboxylic acid | 145 | OCHEM
Cc1c(C(=O)O)oc2c1C(=O)CC(C)(C)C2 | – | 200 | OCHEM
Cc1nn(-c2ccc(F)cc2)c(C)c1C=O | 1-(4-fluorophenyl)-3,5-dimethyl-1H-pyrazole-4-carbaldehyde | 129 | OCHEM
Nn1c(SCc2ccccc2)n[nH]c1=S | 4-amino-5-(benzylthio)-4H-1,2,4-triazole-3-thiol | 158 | OCHEM
CC(C)COC(=O)n1c(-c2cscn2)nc2ccccc21 | – | 72.5 | OCHEM
O=C(O)CCN1C(=O)CSc2ccccc21 | 3-(3-Oxo-2,3-dihydro-4H-1,4-benzothiazin-4-yl)propanoic acid | 145 | OCHEM
CCN(CC)S(=O)(=O)c1ccc(N2CCOCC2)c(N)c1 | 3-Amino-N,N-diethyl-4-(morpholin-4-yl)benzene-1-sulfonamide | 95 | OCHEM
CC(C)NC(=O)c1ccc(Cl)c(N)c1 | 3-Amino-4-chloro-N-(propan-2-yl)benzamide | 132 | OCHEM
ClCc1nnnn1-c1ccccc1 | 5-(chloromethyl)-1-phenyl-1H-tetrazole | 59 | OCHEM
CC(=O)Nc1cccc(S(=O)(=O)Cl)c1 | 3-acetamidobenzene-1-sulfonyl chloride | 79 | OCHEM
CCc1ccc2nc(N)sc2c1 | 6-ethyl-1,3-benzothiazol-2-amine | 106 | OCHEM
COc1ccc(C=C(C(=O)O)c2cccs2)cc1 | 2-Thiopheneacetic acid,a-[(4-methoxyphenyl)methylene]- | 206 | OCHEM
CCCCN(CCCC)C(=S)[S-].CCCCN(CCCC)C(=S)[S-].[Zn+2] | Zinc dibutyldithiocarbamate | 105.5 | OCHEM, PubChem
N#CCN1CCSCC1 | (Thiomorpholin-4-yl)acetonitrile | 52 | OCHEM
CCCCCCCCCCCCCC[N+](C)(C)[O-] | N,N-Dimethyl-1-tetradecanamine N-oxide | 127 | eChemPortal
Cc1nnc2ccc(Cl)nn12 | 6-chloro-3-methyl[1,2,4]triazolo[4,3-b]pyridazine | 104 | OCHEM
O=c1c2ccccc2nnn1CO | 3-(Hydroxymethyl)-1,2,3-benzotriazin-4(3H)-one | 134 | OCHEM
CC(C)(C)c1cc(N)n(-c2ccc(F)cc2)n1 | 3-tert-butyl-1-(4-fluorophenyl)-1H-pyrazol-5-amine | 99 | OCHEM
Cc1cn2c(CC(=O)O)csc2n1 | (6-Methylimidazo[2,1-b][1,3]thiazol-3-yl)acetic acid | 212 | OCHEM
O=C(O)Cc1ccc2c(c1)CCC2 | 2,3-dihydro-1h-inden-5-ylacetic acid | 88 | OCHEM
COc1ccc2nc(C(=O)O)ccc2c1 | 6-methoxyquinoline-2-carboxylic Acid | 185 | OCHEM
CC1=C(/C=C/C(C)=C/C=C/C(C)=C/C=C/C=C(C)/C=C/C=C(C)/C=C/C=C(C)/C=C/C=C(\C)C(=O)O)C(C)(C)CCC1 | Torularhodin | 211 | OCHEM
OCc1cnn(Cc2ccccc2)c1 | (1-Benzyl-1H-pyrazol-4-yl)methanol | 56 | OCHEM
CCNC(=O)c1cccc(N)c1 | 3-amino-N-ethylbenzamide | 70 | OCHEM

Data: OPERA 2.9 data sets, kmansouri/OPERA on GitHub.